# Source: patent US20060079453A1, “Hla binding peptides and their uses” (priority 2002, published 2006)
# By UniProt entry, the sequences of proteins in these tests, tags left out. Residues count along the entry.
# UniProt Q30154, 30-266: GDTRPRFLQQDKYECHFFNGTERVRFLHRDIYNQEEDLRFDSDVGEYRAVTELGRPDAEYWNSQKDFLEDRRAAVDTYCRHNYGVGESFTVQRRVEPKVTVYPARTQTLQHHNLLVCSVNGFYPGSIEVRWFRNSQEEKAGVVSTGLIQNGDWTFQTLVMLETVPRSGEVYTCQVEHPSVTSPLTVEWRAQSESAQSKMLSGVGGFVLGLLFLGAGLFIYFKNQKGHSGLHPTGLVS
# Read-outs that look alike come from different tables or passages of the source.
# Key:
# Experiment in all cases: biochemical
# Assay type in all cases: binding
# HLA-DR DRB1*1501 (DR15) = HLA-DR DRB1*1501 (DR15) (Homo sapiens, UniProt P01903+P01911)
# HLA-DR DRB1*0901 (DR9) = HLA-DR DRB1*0901 (DR9) (Homo sapiens, UniProt P01903+P01911, A100R/A103E/D57H/D86V/F55Y/F60I/F76Y/I96F/K127E/L162R/M171V/P40D/Q125H/Q99R/R33Q/R42F/S133A/S66N/T210M/V115G/W38K/Y107V/Y59G/Y89S)
# HLA-DR DRB1*0802 (DR8) = HLA-DR DRB1*0802 (DR8) (Homo sapiens, UniProt P01903+P01911, A100R/A103L/A169T/F76Y/H45Y/I96F/K41T/L162R/M171V/P40S/Q125H/Q178H/Q39Y/Q99D/R218S/R42G/S66Y/V115G/W38E)
# HLA-DR DRB1*1101 (DR11) = HLA-DR DRB1*1101 (DR11) (Homo sapiens, UniProt P01903+P01911, A100R/A169T/A87E/I96F/K41T/L162R/M171V/P40S/Q125H/Q178H/Q39Y/Q99D/R42S/S66Y/T262R/V115G/W38E); details: DRB1 *1101
# HLA-DR DRB1*0405 (DR4) = HLA-DR DRB1*0405 (DR4) (Homo sapiens, UniProt P01903+P01911, A100R/A169T/D86S/F76Y/I96L/K127E/L162R/M171V/N62H/P40V/Q125Y/R42H/S133A/S149N/S66Y/V115G/V209L/W38E)
# HLA-DR DRB4*0101 (DR53) = HLA-DR DRB4*0101 (DR53) (Homo sapiens, UniProt P01903+P13762, G164S); details: DRB4 *0101
# HLA-DR DRB1*1302 (DR13) = HLA-DR DRB1*1302 (DR13) (Homo sapiens, UniProt P01903+P01911, A100E/A169T/K41T/L162R/M171V/P40S/Q125H/Q178H/Q39Y/Q99D/R42S/S66N/T262R/V115G/W38E/Y61H)
# HLA-DR DRB1*0101 (DR1) = HLA-DR DRB1*0101 (DR1) (Homo sapiens, UniProt P01903+P01911, A100R/D57E/F55L/F60I/F76Y/I96L/L162R/M171V/P40L/Q125E/R42F/V115G/Y59C)
# HLA-DR DRB1*0401 (DR4) = HLA-DR DRB1*0401 (DR4) (Homo sapiens, UniProt P01903+P01911, A100K/A169T/F76Y/I96L/K127E/L162R/M171V/N62H/P40V/Q125Y/R42H/S133A/S149N/S66Y/V115G/V209L/W38E)
# HLA-DR DRB5*0101 (DR51) = HLA-DR DRB5*0101 (DR51) (Homo sapiens, UniProt P01903+Q30154); details: DRB5 *0101
# HLA-DR DRB1*0701 (DR7) = HLA-DR DRB1*0701 (DR7) (Homo sapiens, UniProt P01903+P01911, A100R/A102G/A103Q/D57E/D86V/E43K/F76Y/K127E/L162R/M171V/P40G/Q125H/Q99D/R33Q/R42Y/R54Q/S133A/S66F/T210M/V115G/Y107V/Y59L/Y89S)
Compound,IC50 (HLA-DR DRB1*1501 (DR15); DRBI *1501) [nM],IC50 (HLA-DR DRB1*0901 (DR9); DRB1 *0901) [µM],IC50 (HLA-DR DRB1*0802 (DR8)) [µM],IC50 (HLA-DR DRB1*1101 (DR11)) [µM],IC50 (HLA-DR DRB1*0405 (DR4); DRB1 *0405) [nM],IC50 (HLA-DR DRB4*0101 (DR53)) [nM],IC50 (HLA-DR DRB1*1302 (DR13); DRBI *1302) [µM],IC50 (HLA-DR DRB1*0101 (DR1); DRB1 *0101) [nM],IC50 (HLA-DR DRB1*0401 (DR4); DRB1 *0401) [nM],IC50 (HLA-DR DRB5*0101 (DR51)) [µM],IC50 (HLA-DR DRB1*0901 (DR9); read-out: DRB1 *0901) [µM],IC50 (HLA-DR DRB1*0101 (DR1); read-out: DRB1 *0101) [nM],IC50 (HLA-DR DRB1*0401 (DR4); read-out: DRB1 *0401) [nM],IC50 (HLA-DR DRB1*0701 (DR7); DRB1 *0701) [µM],other results
CC(C)C[C@H](NC(=O)[C@H](CC(C)C)NC(=O)[C@@H](N)CC(N)=O)C(=O)N[C@@H](C)C(=O)N[C@@H](CC(N)=O)C(=O)N[C@H](C(=O)N[C@@H](Cc1ccc(O)cc1)C(=O)N[C@@H](Cc1c[nH]cn1)C(=O)N[C@@H](CCC(N)=O)C(=O)N[C@@H](CCCNC(=N)N)C(=O)N[C@@H](CC(N)=O)C(=O)N[C@@H](Cc1c[nH]cn1)C(=O)N[C@@H](CC(C)C)C(=O)N[C@@H](CCCCN)C(=O)N[C@H](C(=O)O)[C@@H](C)O)C(C)C,20,4.16,0.453,8.26,1490,3070,0.061,152,1040,0.065,–,–,–,–,–
REETQQKSNLELLR,–,–,–,–,–,–,–,–,–,–,9.68,8920,9340,–,IC50 (HLA-DR DRB1*0802 (DR8); read-out: DRB1 *0802): 22.5 µM
CC[C@H](C)[C@H](NC(=O)[C@H](CO)NC(=O)[C@H](CCC(=O)O)NC(=O)[C@H](CO)NC(=O)[C@H](Cc1ccccc1)NC(=O)[C@H](CS)NC(=O)[C@H](CC(C)C)NC(=O)[C@H](CO)NC(=O)[C@@H](N)[C@@H](C)O)C(=O)N1CCC[C@H]1C(=O)N[C@H](C(=O)N1CCC[C@H]1C(=O)N[C@@H](CO)C(=O)N[C@@H](CC(N)=O)C(=O)N[C@@H](CCCNC(=N)N)C(=O)O)[C@@H](C)O,–,4.4,–,–,852,1880,0.099,604,48,–,–,–,–,–,–
CC[C@H](C)[C@H](NC(=O)CN)C(=O)N[C@@H](CCC(N)=O)C(=O)N[C@H](C(=O)N[C@@H](CC(C)C)C(=O)N[C@@H](CCSC)C(=O)NCC(=O)N[C@@H](CCCNC(=N)N)C(=O)N[C@@H](CC(C)C)C(=O)N[C@@H](CCC(=O)O)C(=O)N[C@@H](CC(=O)O)C(=O)NCC(=O)N[C@@H](CO)C(=O)N1CCC[C@H]1C(=O)N[C@@H](CCCNC(=N)N)C(=O)O)[C@@H](C)O,1350,–,–,4.47,–,2110,–,98,11900,18,–,–,–,19,–
CC[C@H](C)[C@H](NC(=O)[C@H](C)NC(=O)[C@H](CCC(=O)O)NC(=O)[C@@H](N)CCCCN)C(=O)N[C@@H](CO)C(=O)N1CCC[C@H]1C(=O)N1CCC[C@H]1C(=O)N[C@@H](CC(=O)O)C(=O)N[C@@H](C)C(=O)N[C@@H](C)C(=O)N[C@@H](CO)C(=O)N[C@@H](C)C(=O)N[C@@H](C)C(=O)N1CCC[C@H]1C(=O)N[C@@H](CC(C)C)C(=O)O,1200,5.73,6.39,0.601,28800,2990,9.27,15500,–,0.31,–,–,–,6.66,–
CC(C)C[C@H](NC(=O)[C@H](CC(=O)O)NC(=O)[C@H](Cc1ccc(O)cc1)NC(=O)[C@@H](NC(=O)[C@H](CC(N)=O)NC(=O)[C@H](CO)NC(=O)[C@H](CC(=O)O)NC(=O)[C@H](CO)NC(=O)[C@H](C)NC(=O)CNC(=O)[C@H](Cc1ccc(O)cc1)NC(=O)[C@@H](NC(=O)[C@H](CC(C)C)NC(=O)[C@H](CO)NC(=O)[C@@H](N)CC(N)=O)C(C)C)C(C)C)C(=O)O,–,3.9,–,–,–,–,14,–,190,–,–,–,–,0.201,–
VLERYLLEAYEAENI,–,–,–,–,–,–,–,–,–,–,6.38,933,2600,–,IC50 (HLA-DR DRB1*0701 (DR7); read-out: DRB1 *0701): 13.1 µM; IC50 (HLA-DR DRB1*0405 (DR4); read-out: DRB1 *0405): 5020 nM
CC[C@H](C)[C@H](N)C(=O)N1CCC[C@H]1C(=O)N[C@@H](CCCCN)C(=O)N[C@@H](CCC(=O)O)C(=O)N[C@@H](CCC(N)=O)C(=O)N[C@@H](CCCCN)C(=O)N[C@@H](Cc1ccc(O)cc1)C(=O)N[C@@H](CO)C(=O)N[C@@H](Cc1ccccc1)C(=O)N[C@@H](CC(C)C)C(=O)N[C@@H](CCC(N)=O)C(=O)N[C@@H](CC(N)=O)C(=O)N1CCC[C@H]1C(=O)N[C@@H](CCC(N)=O)C(=O)N[C@H](C(=O)O)[C@@H](C)O,16200,–,13.6,–,9,–,13.7,128,–,13.1,–,–,–,8.31,–
QKEDAAVTIYEMLQN,–,–,–,–,–,–,–,–,–,–,5.99,8380,9440,–,IC50 (HLA-DR DRB1*1501 (DR15); read-out: DRBI *1501): 1150 nM; IC50 (HLA-DR DRB1*0405 (DR4); read-out: DRB1 *0405): 785 nM; IC50 (HLA-DR DRB1*1302 (DR13); read-out: DRBI *1302): 7.31 µM
